Measured values taken from US12404270B2, “Quinazoline derivatives as LPA receptor 2 inhibitors” (CHIESI FARMACEUTICI S.P.A., priority 2019, dated 2025).

The chains behind the UniProt entries cited, without tags or fusion partners.
UniProt Q9HBW0, whole entry: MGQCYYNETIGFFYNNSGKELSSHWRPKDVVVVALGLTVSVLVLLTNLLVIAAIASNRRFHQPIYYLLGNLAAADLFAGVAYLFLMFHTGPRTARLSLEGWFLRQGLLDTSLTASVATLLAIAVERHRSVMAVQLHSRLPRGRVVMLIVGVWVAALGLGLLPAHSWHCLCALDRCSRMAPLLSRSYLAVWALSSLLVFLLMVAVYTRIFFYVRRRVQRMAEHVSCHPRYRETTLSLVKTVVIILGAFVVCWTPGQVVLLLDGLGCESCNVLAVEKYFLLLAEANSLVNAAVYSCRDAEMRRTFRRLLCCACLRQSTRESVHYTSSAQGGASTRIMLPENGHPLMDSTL

Molecular target: T1, human recombinant LPA2 expressed in CHO cells (Homo sapiens, UniProt Q9HBW0)
T1 construct: expressed in transfected cells; host or cells: CHO (CHO-hLPA2 cell line)
Assay: FLIPR calcium mobilization assay, LPA2 antagonism in CHO-hLPA2 cells
Assay type: cell-based
Settings: inhibition of LPA EC80 Ca2+ response, 30 min pre-incubation
Description: The effectiveness of compounds of the present invention as LPA2 antagonist can be determined at the human recombinant LPA2 expressed in CHO cells, using a FLIPR assay in 384 well format.
CHO-hLPA2 cell lines are cultured in a humidified incubator at 5% CO2 in DMEM/F-12 (1:1) MIXTURE with 2 mM Glutamax, supplemented with 10% of Foetal Bovine Serum, 1 mM Sodium Pyruvate, 11 mM Hepes and 1× Penicillin/Streptomycin. CHO hLPA2 cells are seeded into black walled clear-bottom 384-well plates (#781091, Greiner Bio-One GmbH) at a density of 7,500 cells per well in 50 μl culture media and grown overnight in a 37° C. humidified CO2-incubator. Serial dilutions (1:3 or 1:4, 11 points CRC) of compounds are performed in 100% DMSO at 200× the final concentration. […] The loaded cell plates are transferred into the FLIPR instrument and calcium responses are monitored during the on-line addition protocols. […] Intracellular peak fluorescence values subtracted by baseline fluorescence are exported and analysed to determine IC50 values, respectively. The calcium response is expressed as percentage of the maximal inhibition of the EC80 agonist response.
The raw data (peak height expressed as relative fluorescence units) are normalized and transformed into “percent of inhibition”. […]

COC(=O)c1cccc2c(N[C@@H](C)CN3CCN(S(=O)(=O)c4ccc(Cl)c(Cl)c4)CC3)ncnc12 (racemic) [Example 10, methyl 4-{[(2S)-1-[4-(3,4-dichlorobenzenesulfonyl)piperazin-1-yl]propan-2-yl]amino}quinazoline-8-carboxylate]
IC50: < 1000 nM

COC(=O)Nc1nc(C)c(S(=O)(=O)N2CCN(C[C@H](C)Nc3ncnc4c(C(=O)N(C)C)cccc34)CC2)s1 (racemic) [Example 27, methyl N-[5-({4-[(2S)-2-{[8-(dimethylcarbamoyl)quinazolin-4-yl]amino}propyl]piperazin-1-yl}sulfonyl)-4-methyl-1,3-thiazol-2-yl]carbamate]
IC50: < 1000 nM
